Measured values reported in article PMC11094875, “Cholecystokinin B receptor agonists alleviates anterograde amnesia in cholecystokinin-deficient and aged Alzheimer's disease mice” (Alzheimer's Research & Therapy, 2024).

Sequences of proteins named here, by UniProt entry; tags and fusion partners are left off.
UniProt P32238, whole entry, species assumed: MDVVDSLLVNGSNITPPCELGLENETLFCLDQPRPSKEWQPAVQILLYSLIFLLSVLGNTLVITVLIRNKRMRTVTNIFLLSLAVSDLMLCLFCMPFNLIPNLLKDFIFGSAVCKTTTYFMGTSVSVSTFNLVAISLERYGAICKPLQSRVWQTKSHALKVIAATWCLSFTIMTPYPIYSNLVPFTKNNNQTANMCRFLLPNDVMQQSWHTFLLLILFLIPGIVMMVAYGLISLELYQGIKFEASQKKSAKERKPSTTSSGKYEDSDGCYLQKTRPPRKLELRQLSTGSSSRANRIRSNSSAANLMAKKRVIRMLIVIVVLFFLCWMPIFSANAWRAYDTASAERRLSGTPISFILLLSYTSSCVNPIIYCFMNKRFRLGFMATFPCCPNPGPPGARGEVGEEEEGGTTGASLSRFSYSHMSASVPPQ

How the values were obtained:
CCKBR = target: T1, CCKBR (Homo sapiens, UniProt P32239); assay: In vitro calcium imaging assay, CHO-CCKBR cells; assay type: cell-based; conditions: read-out: 100% CCK8s maximal response
T1 construct: expressed in transfected cells; host or cells: CHO CCKBR cell line
T1 sequence (P32239 1-447): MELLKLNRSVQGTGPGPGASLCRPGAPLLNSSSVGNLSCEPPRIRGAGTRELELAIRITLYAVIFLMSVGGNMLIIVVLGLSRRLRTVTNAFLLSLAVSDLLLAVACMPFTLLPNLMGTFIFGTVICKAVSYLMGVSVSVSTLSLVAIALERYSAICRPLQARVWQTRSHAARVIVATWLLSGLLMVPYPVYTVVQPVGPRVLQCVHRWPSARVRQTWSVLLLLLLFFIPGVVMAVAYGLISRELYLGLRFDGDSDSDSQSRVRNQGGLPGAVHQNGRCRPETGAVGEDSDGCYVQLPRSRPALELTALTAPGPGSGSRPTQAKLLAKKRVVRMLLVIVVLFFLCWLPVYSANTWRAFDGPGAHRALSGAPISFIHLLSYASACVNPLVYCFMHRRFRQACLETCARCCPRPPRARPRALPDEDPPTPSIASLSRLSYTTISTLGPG

[1] = after i.p. injection ref 26; cited from earlier work
CCKAR = target: T2, CCKAR (Homo sapiens, UniProt P32238); assay: In vitro calcium imaging assay, CHO-CCKAR cells; assay type: cell-based
T2 construct: expressed in transfected cells; host or cells: CHO cells overexpressing CCKAR

With `CSCC[C@H](NC(=O)[C@@H](N)Cc1c[nH]c2ccccc12)C(=O)N[C@@H](CC(=O)O)C(=O)N[C@@H](Cc1ccccc1)C(N)=O` [CCK-4, CCK tetrapeptide] as the molecule, how does the Emax (CCKBR) read?
The Emax was 91.3 ± 6.37%.

What about the “blood–brain barrier penetration” value [1] of the same molecule?
Its value is “can penetrate the blood–brain barrier”.

And the EC50 (CCKAR; CHO-CCKAR cells, Fluo-8 calcium assay, mean ± SEM)?
The EC50 was 2270 ± 493 nM.

What about the Emax (CCKAR; read-out: 100% CCK8s maximal response) of the same molecule?
Its Emax is 48.1 ± 3.42%.
